We go through 2 molecules from article PMC3539767 (Bioorganic & medicinal chemistry letters, 2012).

The chains behind the UniProt entries cited, without tags or fusion partners. Residues count along the entry.
UniProt P31424, 21-1203: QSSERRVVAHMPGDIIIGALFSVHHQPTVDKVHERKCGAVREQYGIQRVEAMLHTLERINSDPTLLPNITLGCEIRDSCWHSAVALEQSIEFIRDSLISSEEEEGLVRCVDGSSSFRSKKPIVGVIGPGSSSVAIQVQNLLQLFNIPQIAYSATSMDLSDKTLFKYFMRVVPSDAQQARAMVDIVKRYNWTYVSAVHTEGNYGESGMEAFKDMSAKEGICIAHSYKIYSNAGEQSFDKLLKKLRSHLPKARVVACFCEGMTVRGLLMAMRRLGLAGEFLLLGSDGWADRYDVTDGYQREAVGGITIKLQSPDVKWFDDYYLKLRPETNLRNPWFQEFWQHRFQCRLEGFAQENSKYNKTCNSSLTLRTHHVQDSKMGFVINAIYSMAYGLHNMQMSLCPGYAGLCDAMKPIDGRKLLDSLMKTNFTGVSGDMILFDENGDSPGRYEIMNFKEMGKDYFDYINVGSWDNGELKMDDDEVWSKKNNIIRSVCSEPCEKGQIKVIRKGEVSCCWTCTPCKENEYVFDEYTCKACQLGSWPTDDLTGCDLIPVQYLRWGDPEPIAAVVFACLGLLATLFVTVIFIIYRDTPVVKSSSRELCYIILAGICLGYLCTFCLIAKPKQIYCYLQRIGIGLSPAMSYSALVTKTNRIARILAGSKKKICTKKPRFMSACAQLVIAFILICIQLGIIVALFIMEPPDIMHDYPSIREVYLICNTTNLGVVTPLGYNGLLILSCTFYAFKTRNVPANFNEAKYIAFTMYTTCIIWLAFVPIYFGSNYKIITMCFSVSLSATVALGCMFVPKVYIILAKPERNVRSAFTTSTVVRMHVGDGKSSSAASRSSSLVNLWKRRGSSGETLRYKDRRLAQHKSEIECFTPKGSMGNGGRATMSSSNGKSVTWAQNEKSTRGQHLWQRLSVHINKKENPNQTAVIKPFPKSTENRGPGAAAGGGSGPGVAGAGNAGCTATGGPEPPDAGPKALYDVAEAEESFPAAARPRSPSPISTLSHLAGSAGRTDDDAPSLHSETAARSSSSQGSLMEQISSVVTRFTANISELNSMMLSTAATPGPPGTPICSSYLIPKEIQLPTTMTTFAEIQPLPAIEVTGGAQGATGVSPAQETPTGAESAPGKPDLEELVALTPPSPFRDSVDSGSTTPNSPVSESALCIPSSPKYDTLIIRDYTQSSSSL

For one assay, the target named is rat mGlu5 (Rattus norvegicus, UniProt P31424). Description: calcium mobilization PAM assay, high-expressing rat mGlu5 HTS cell line. The following applies: value for 15a estimated because of agonist activity. It counts as cell-based.

Turning to `CS(=O)(=O)N(CC(=O)Nc1ccccc1)c1ccccc1Cl` [15a], the fold shift on rat mGlu5 is ~ 1.2 fold. As to `CS(=O)(=O)N(CC(=O)NCC1CC1)c1cc(C(F)(F)F)ccc1Cl` [compound 24], the “selectivity versus the other mGlus” value with mGlu1–4,6–8 is given as “highly selective”.
